Literature values in US8524201B2, “Non-cytotoxic chlorine dioxide fluids” (BASF Corporation, priority 2008, dated 2013).

Conditions: background statement

## chlorous acid
  pKa for the chlorite ion/chlorous acid equilibrium: 1.8
